# Permeability data for macrocyclic peptides

PAMPA measures passive passage through an artificial lipid membrane. RRCK values come from monolayers of low-efflux MDCK cells. P is given in units of 10^-6 cm/s (from log10 values with two decimals); larger means faster passage. A value with < or ≤ is an upper limit. "n/a" marks a cell with nothing listed here.

| SMILES | PAMPA (10^-6 cm/s) | RRCK (10^-6 cm/s) |
|---|---|---|
| CCCC[C@H]1C(=O)N(C)[C@H](CC)C(=O)N(C)[C@H](C)C(=O)N(C)[C@@H](CCC)C(=O)N(C)[C@H](CC)C(=O)N2CCC[C@@H]2C(=O)N(C)[C@@H](Cc2ccc(O)cc2)C(=O)N(C)[C@H](C)C(=O)N(C)[C@@H](CCC)C(=O)N(C)[C@H](CC)C(=O)N1C | 1.4 | 0.58 |
| C[C@@H]1C(=O)N(C)[C@@H](C)C(=O)N(C)[C@H](C)C(=O)N2CCC[C@@H]2C(=O)N(C)[C@@H](Cc2ccc(O)cc2)C(=O)N(C)[C@H](C)C(=O)N(C)[C@@H](C)C(=O)N(C)[C@H](C)C(=O)N1C | 0.023 | 0.66 |
| CCCC[C@@H]1C(=O)N(C)[C@@H](CCCC)C(=O)N(C)[C@H](C)C(=O)N2CCC[C@@H]2C(=O)N(C)[C@@H](Cc2ccc(O)cc2)C(=O)N(C)[C@H](CC)C(=O)N(C)[C@@H](CCCC)C(=O)N(C)[C@H](CC)C(=O)N1C | 3.3 | 4 |
| CC(C)C[C@@H]1C(=O)N2CCC[C@@H]2C(=O)N(C)[C@@H](Cc2ccc(O)cc2)C(=O)N(C)[C@H](CC(C)C)C(=O)N(C)[C@@H](CC(C)C)C(=O)N(C)[C@H](C)C(=O)N(C)[C@H](C)C(=O)N(C)[C@@H](CC(C)C)C(=O)N1C | 4 | 4.5 |
| CCC[C@@H]1C(=O)N(C)[C@@H](CC)C(=O)N(C)[C@H](CCC)C(=O)N2CCC[C@@H]2C(=O)N(C)[C@@H](Cc2ccc(O)cc2)C(=O)N(C)[C@@H](CCC)C(=O)N(C)[C@H](CC)C(=O)N(C)[C@@H](CCC)C(=O)N(C)[C@H](CCC)C(=O)N1C | 4.5 | 3.5 |
| CC(C)C[C@@H]1C(=O)N(C)[C@@H](CC(C)C)C(=O)N(C)[C@H](C)C(=O)N2CCC[C@@H]2C(=O)N(C)[C@@H](Cc2ccc(O)cc2)C(=O)N(C)[C@H](C)C(=O)N(C)[C@@H](CC(C)C)C(=O)N(C)[C@H](CC(C)C)C(=O)N1C | 11 | 8.9 |
| CCC[C@H]1C(=O)N(C)[C@H](CC)C(=O)N(C)[C@@H](C)C(=O)N(C)[C@H](CC)C(=O)N(C)[C@H](CC)C(=O)N(C)[C@@H](C)C(=O)N(C)[C@H](CC)C(=O)N2CCC[C@@H]2C(=O)N(C)[C@@H](Cc2ccc(O)cc2)C(=O)N(C)[C@H](C)C(=O)N1C | 0.12 | < 0.1 |
| CCCC[C@@H]1C(=O)N(C)[C@@H](CCCC)C(=O)N(C)[C@H](CC)C(=O)N2CCC[C@@H]2C(=O)N(C)[C@@H](Cc2ccc(O)cc2)C(=O)N(C)[C@H](C)C(=O)N(C)[C@@H](CCC)C(=O)N(C)[C@H](CC)C(=O)N(C)[C@@H](CCCC)C(=O)N(C)[C@H](CC)C(=O)N1C | 0.79 | n/a |
| CC(C)C[C@@H]1C(=O)N(C)[C@@H](CC(C)C)C(=O)N(C)[C@H](C)C(=O)N2CCC[C@@H]2C(=O)N(C)[C@@H](Cc2ccc(O)cc2)C(=O)N(C)[C@H](CC(C)C)C(=O)N(C)[C@@H](C)C(=O)N(C)[C@H](CC(C)C)C(=O)N1C | 19 | 2.8 |
| CCC[C@H]1C(=O)N(C)[C@H](CC)C(=O)N(C)[C@@H](C)C(=O)N(C)[C@H](CC)C(=O)N(C)[C@H](C)C(=O)N(C)[C@@H](C)C(=O)N(C)[C@H](CC)C(=O)N2CCC[C@@H]2C(=O)N(C)[C@@H](Cc2ccc(O)cc2)C(=O)N1C | 0.05 | 0.13 |
| CC(C)C[C@@H]1C(=O)N(C)[C@@H](C)C(=O)N(C)[C@H](C)C(=O)N2CCC[C@@H]2C(=O)N(C)[C@@H](Cc2ccc(O)cc2)C(=O)N(C)[C@H](C)C(=O)N(C)[C@@H](CC(C)C)C(=O)N(C)[C@H](C)C(=O)N1C | 1 | 0.38 |
| CCCC[C@@H]1C(=O)N(C)[C@@H](C)C(=O)N(C)[C@H](C)C(=O)N2CCC[C@@H]2C(=O)N(C)[C@@H](Cc2ccc(O)cc2)C(=O)N(C)[C@H](CC)C(=O)N(C)[C@@H](C)C(=O)N(C)[C@H](C)C(=O)N1C | 0.24 | 0.22 |
| CC(C)C[C@@H]1C(=O)N(C)[C@@H](C)C(=O)N(C)[C@H](C)C(=O)N2CCC[C@@H]2C(=O)N(C)[C@@H](Cc2ccc(O)cc2)C(=O)N(C)[C@H](CC(C)C)C(=O)N(C)[C@@H](CC(C)C)C(=O)N(C)[C@H](CC(C)C)C(=O)N1C | 6 | 7.2 |
| CCCC[C@@H]1C(=O)N(C)[C@@H](CCCC)C(=O)N(C)[C@H](CCCC)C(=O)N2CCC[C@@H]2C(=O)N(C)[C@@H](Cc2ccc(O)cc2)C(=O)N(C)[C@@H](CCC)C(=O)N(C)[C@H](CC)C(=O)N(C)[C@@H](CCCC)C(=O)N(C)[C@H](CCCC)C(=O)N1C | < 0.01 | < 0.1 |
| CCCC[C@@H]1C(=O)N(C)[C@H](C)C(=O)N(C)[C@@H](CCCC)C(=O)N(C)[C@H](C)C(=O)N2CCC[C@@H]2C(=O)N(C)[C@@H](Cc2ccc(O)cc2)C(=O)N(C)[C@@H](CCC)C(=O)N(C)[C@H](CC)C(=O)N(C)[C@@H](C)C(=O)N1C | 0.79 | 0.62 |
| CCC[C@@H]1C(=O)N(C)[C@@H](CCC)C(=O)N(C)[C@H](CCC)C(=O)N2CCC[C@@H]2C(=O)N(C)[C@@H](Cc2ccc(O)cc2)C(=O)N(C)[C@H](CC)C(=O)N(C)[C@@H](CCC)C(=O)N(C)[C@H](CCC)C(=O)N1C | 4 | 7.2 |
| CC(C)C[C@@H]1C(=O)N(C)[C@@H](C)C(=O)N(C)[C@H](CC(C)C)C(=O)N2CCC[C@@H]2C(=O)N(C)[C@@H](Cc2ccc(O)cc2)C(=O)N(C)[C@H](CC(C)C)C(=O)N(C)[C@@H](C)C(=O)N(C)[C@H](CC(C)C)C(=O)N1C | 19 | 13 |
| CC(C)C[C@@H]1C(=O)N(C)[C@@H](CC(C)C)C(=O)N(C)[C@H](CC(C)C)C(=O)N2CCC[C@@H]2C(=O)N(C)[C@@H](Cc2ccc(O)cc2)C(=O)N(C)[C@H](CC(C)C)C(=O)N(C)[C@@H](CC(C)C)C(=O)N(C)[C@H](CC(C)C)C(=O)N1C | 0.033 | < 0.1 |
| CCCC[C@@H]1C(=O)N(C)[C@@H](CCCC)C(=O)N(C)[C@H](CCCC)C(=O)N2CCC[C@@H]2C(=O)N(C)[C@@H](Cc2ccc(O)cc2)C(=O)N(C)[C@H](CC)C(=O)N(C)[C@@H](CCCC)C(=O)N(C)[C@H](CCCC)C(=O)N1C | < 0.01 | < 0.1 |
| CC(C)C[C@@H]1C(=O)N(C)[C@@H](CC(C)C)C(=O)N(C)[C@H](CC(C)C)C(=O)N2CCC[C@@H]2C(=O)N(C)[C@@H](Cc2ccc(O)cc2)C(=O)N(C)[C@H](C)C(=O)N(C)[C@@H](C)C(=O)N(C)[C@H](CC(C)C)C(=O)N1C | 7.9 | 10 |
| CC(C)C[C@@H]1C(=O)N(C)[C@H](C)C(=O)N(C)[C@@H](CC(C)C)C(=O)N(C)[C@H](CC(C)C)C(=O)N2CCC[C@@H]2C(=O)N(C)[C@@H](Cc2ccc(O)cc2)C(=O)N(C)[C@H](CC(C)C)C(=O)N(C)[C@@H](C)C(=O)N1C | 24 | 9.8 |

The last 3 entries again:

| SMILES | PAMPA (10^-6 cm/s) | RRCK (10^-6 cm/s) |
|---|---|---|
| CCCC[C@@H]1C(=O)N(C)[C@@H](CCCC)C(=O)N(C)[C@H](CCCC)C(=O)N2CCC[C@@H]2C(=O)N(C)[C@@H](Cc2ccc(O)cc2)C(=O)N(C)[C@H](CC)C(=O)N(C)[C@@H](CCCC)C(=O)N(C)[C@H](CCCC)C(=O)N1C | < 0.01 | < 0.1 |
| CC(C)C[C@@H]1C(=O)N(C)[C@@H](CC(C)C)C(=O)N(C)[C@H](CC(C)C)C(=O)N2CCC[C@@H]2C(=O)N(C)[C@@H](Cc2ccc(O)cc2)C(=O)N(C)[C@H](C)C(=O)N(C)[C@@H](C)C(=O)N(C)[C@H](CC(C)C)C(=O)N1C | 7.9 | 10 |
| CC(C)C[C@@H]1C(=O)N(C)[C@H](C)C(=O)N(C)[C@@H](CC(C)C)C(=O)N(C)[C@H](CC(C)C)C(=O)N2CCC[C@@H]2C(=O)N(C)[C@@H](Cc2ccc(O)cc2)C(=O)N(C)[C@H](CC(C)C)C(=O)N(C)[C@@H](C)C(=O)N1C | 24 | 9.8 |

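The data file gives no further conditions (lipid, pH, time, direction or concentration), and values from different papers need not be comparable. Other peptides of the study may be missing here. Entries at the database's floor value (log10 P of -10) are not listed.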

Data: CycPeptMPDB; original report Pye et al. 2017, doi:10.1021/acs.jmedchem.6b01483.